The values that follow come from article PMC11470414, “In vitro assessment of Dracocephalum lindbergii for growth inhibition, apoptosis induction, and cytokine modulation against Leishmaniamajor” (Heliyon, 2024).

The test system of the data set is macrophage cell line (THP-1). Put plainly: Toxicity on macrophages (MTT, CC50). It counts as cell-based. Here is the method:
The promastigote form of L. major (MRHO/IR/75/ER), the national standard isolate, was obtained from the Pasteur Institute of Iran and cultured at 25 °C in RPMI-1640 medium containing 10 % heat-inactivated FBS and 1 % penicillin/streptomycin. The THP-1 macrophage cell line, provided by the Kerman Leishmaniasis Research Center, was grown in Dulbecco's Modified Eagle Medium (DMEM) supplemented with 10 % FBS and 0.5 % antibiotics (Sigma, Poole, UK), and incubated at 37 °C with 5 % CO₂ [21].
To assess the impact of the D. lindbergii fraction on L. major promastigotes, amastigotes, and macrophages, cell viability was determined using the 3-(4,5-dimethylthiazol-2-yl)-2,5-diphenyl tetrazolium bromide (MTT). L. major in the logarithmic growth phase (1 × 10⁶) was plated in a 96-well microplate using RPMI-1640 medium supplemented with 10 % FBS and treated with different concentrations of the samples. The plates were then incubated. Subsequently, 10 μL of MTT (Sigma Chemical Co., St. Louis, MO) at a concentration of 5 mg/mL was added to each well. After incubation, DMSO was added to stop the reactions, and the optical density (OD) absorbance of the samples was measured at 570 nm using an ELISA plate reader (BioTek Company, USA). The results were analyzed by calculating the inhibition percentage through linear regression.

Turning to meglumine antimoniate [MAT], the “Macrophage (24 h) CC50” value (24 h) was found to be 780.3 ± 38.2. Further, the “Macrophage (48h) CC50” value (48 h) was determined as 758.3 ± 25.1. Besides, for the setting “72 h”, the “Macrophage (72h) CC50” value was found to be 744.9 ± 25.0.
